{
  "source": "patent US20230303817A1",
  "about": "“BLENDED POLYVINYL ALCOHOL DRUG DELIVERY SYSTEMS” (The University of British Columbia, priority 2020, published 2023)",
  "test": "Release of other therapeutic agents from blended PVA cast films or electrospun membranes",
  "format": "physicochemical",
  "conditions": "1% BSA",
  "description": "Films or electrospun membrane were manufactured as described above containing either docetaxel, doxycycline, gentamicin or bovine serum albumin (BSA; as a protein model for any “biological” based drug such as an antibody). […] Gentamicin was analyzed using a fluorescence tag assay using Fluoraldehyde™ (Thermo Fisher) and BSA protein release was assayed using a BCA protein analysis kit.",
  "data": [
    {"substance": "bovine serum albumin [BSA]", "values": [
      {"measurement": "protein release", "setting": "cast films of blended PVA 99%:88%, at day 6", "value": 100, "unit": "%"},
      {"measurement": "protein release", "setting": "electrospun membrane of blended PVA 99%:88%, at 6 days", "value": 10, "unit": "%"}
    ]}
  ]
}
